The values that follow come from article PMC12707061 (National Science Review, 2025).

Protein sequences, listed by entry. Tags and fused reporters are not part of them.
UniProt P31645, whole entry: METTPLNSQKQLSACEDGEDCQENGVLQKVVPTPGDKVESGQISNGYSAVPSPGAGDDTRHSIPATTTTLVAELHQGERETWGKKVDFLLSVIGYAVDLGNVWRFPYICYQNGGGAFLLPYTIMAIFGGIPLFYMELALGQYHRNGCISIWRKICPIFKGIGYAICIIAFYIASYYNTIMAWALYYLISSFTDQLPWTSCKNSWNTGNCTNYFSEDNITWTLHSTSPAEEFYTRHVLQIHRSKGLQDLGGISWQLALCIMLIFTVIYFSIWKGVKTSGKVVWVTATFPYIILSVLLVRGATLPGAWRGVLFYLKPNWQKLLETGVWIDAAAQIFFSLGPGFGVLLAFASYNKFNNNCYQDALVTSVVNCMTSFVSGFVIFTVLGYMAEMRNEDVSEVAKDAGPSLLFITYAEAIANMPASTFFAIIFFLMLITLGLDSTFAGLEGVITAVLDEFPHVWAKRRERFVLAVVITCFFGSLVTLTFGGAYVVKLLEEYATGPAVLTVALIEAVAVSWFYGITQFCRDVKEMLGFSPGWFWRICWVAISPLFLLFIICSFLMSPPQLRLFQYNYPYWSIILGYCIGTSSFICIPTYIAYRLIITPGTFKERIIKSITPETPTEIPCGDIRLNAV

In one assay the test system is SERT. The following applies: concentration range typically capped at 10 μM; cited from earlier work.
A further assay deals with mPFC VIP neurons. In words: Patch-clamp recordings of mPFC VIP neurons in slices after in vivo drug injection. The following applies: firing neurons after ketamine. Background: The patch-clamp technique gives a direct electrical read-out from membranes.
The next assay has as its target human SERT (Homo sapiens, UniProt P31645). The following applies: read-out: dissociation constant (Kd).

Take `CNC1(c2ccccc2Cl)CCCCC1=O` (stereo not drawn) [ketamine]: the “binding of ketamine to SERT” value in the assay on SERT was “minimal or weak binding”. Also, the “neuronal membrane resistance of VIP neurons” value in the assay with mPFC VIP neurons is “increase in neuronal membrane resistance”.

A word on the Kd: it is a measure of binding affinity in units of concentration. With [^3H]-imipramine, the Kd at human SERT is 2.42 nM.
